Only a part is listed here, and it is no random draw. Calls of active or inactive are those of the source. No stated cut-off is given here; in the data, active means inhibition above about 29%; inactive means the rest.

Protein sequences, listed by entry. Tags and fused reporters are not part of them.
UniProt O43613, whole entry: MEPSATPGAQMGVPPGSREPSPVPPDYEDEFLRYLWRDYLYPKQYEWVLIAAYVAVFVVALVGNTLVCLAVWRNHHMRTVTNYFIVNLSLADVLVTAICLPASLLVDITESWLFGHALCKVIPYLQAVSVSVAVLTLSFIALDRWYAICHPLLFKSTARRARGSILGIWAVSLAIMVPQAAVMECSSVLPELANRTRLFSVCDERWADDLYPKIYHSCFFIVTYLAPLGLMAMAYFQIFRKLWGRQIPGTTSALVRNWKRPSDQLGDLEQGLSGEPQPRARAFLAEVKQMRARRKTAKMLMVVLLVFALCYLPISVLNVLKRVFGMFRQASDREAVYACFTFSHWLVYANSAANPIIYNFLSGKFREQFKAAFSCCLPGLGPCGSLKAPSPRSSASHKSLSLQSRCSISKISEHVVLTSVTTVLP

The experiment addresses Orexin/Hypocretin receptor type 1 (Homo sapiens) (UniProt O43613). The experiment in a line: OX1R (HCRTR1) antagonists, confirmation, fluorescence, CHO/OX1R cells, Fluo-8 calcium, orexin A (AID 492963).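 Further: 0% = agonist challenge alone and 100% = reference antagonist.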 The conditions noted are these: orexin A calcium Fluo-8 fluorescence, at 5 µM, hits give high values.
As usually defined, the inhibition is the change of the read-out against control, counted positive when it falls. `CP(=O)(Nc1ccc2c(c1)OCCO2)Oc1ccccc1` (stereo unspecified): the inhibition was inactive: -5%.
